{"source": "patent US9670264B2", "about": "“Water soluble G-protein coupled receptor” (The Trustees of The University of Pennsylvania, priority 2013, dated 2017)", "tested_on": "human μ opioid receptor expressed in HEK293 cells", "assay": "Binding competition assay (TR-FRET/HTRF) between native human μ opioid receptor and water-soluble variants, with a fluorescent naltrexone-derived antagonist", "details": "negative control added instead of a water-soluble variant", "from_the_text": "FIG. 7. […] Data is used to calculate HTRF ratios, and represent the mean±standard error of mean of quadruplicates. ΔF is used for the comparison of different runs of the same assay which reflects the signal to background of the assay. ΔF=[(Ratiosample−Ratiobackgroud)/Ratiobackgroud] (%).\nA recently developed methodology which uses a fluorescently labeled ligand and the native MUR was used to investigate the ligand-binding capabilities of the water-soluble receptors."}
{"substance": "human serum albumin [HSA, reference compound]", "values": [{"measurement": "change in the fluorescence ratio (665 nm/620 nm)", "value": "no significant change"}]}
